Experimental data as given in paper PMC11272584 (Nature Metabolism, 2024).
Numbering of substitutions follows the chain as printed.

Columns and labels:
[1] = test system: GIPR W90Lfs*17; assay: cAMP accumulation; type: cell-based, human; conditions: HEK293, Hill slope 1.0, mean of n = 5
[2] = target: T1, GIPR E354Q (Homo sapiens, UniProt P48546, E354Q); conditions: GIPR E354Q (6.53), mean, n = 4, duplicate
T1 sequence (P48546 22-466 E354Q): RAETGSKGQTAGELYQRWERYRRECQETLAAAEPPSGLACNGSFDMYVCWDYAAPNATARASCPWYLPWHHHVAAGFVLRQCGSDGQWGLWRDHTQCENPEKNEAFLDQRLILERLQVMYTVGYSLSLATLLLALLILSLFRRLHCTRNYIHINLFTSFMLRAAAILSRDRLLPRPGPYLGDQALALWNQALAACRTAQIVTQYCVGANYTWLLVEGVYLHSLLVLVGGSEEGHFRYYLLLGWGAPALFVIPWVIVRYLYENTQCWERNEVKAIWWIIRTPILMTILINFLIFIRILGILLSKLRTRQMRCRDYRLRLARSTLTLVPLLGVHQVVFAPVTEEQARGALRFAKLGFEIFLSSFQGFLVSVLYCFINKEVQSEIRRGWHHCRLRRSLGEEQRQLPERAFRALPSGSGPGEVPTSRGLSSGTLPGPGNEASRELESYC

[3] = target: T2, GIPR G449A (Homo sapiens, UniProt P48546, G449A); conditions: GIPR G449A (ICD), mean, n = 3, duplicate
T2 sequence (P48546 22-466 G449A): T1 sequence (P48546 22-466 E354Q) with Q333E, G428A

[4] = target: T3, GIPR E461* (Homo sapiens, UniProt P48546)
T3 sequence (P48546 22-460 limits assumed): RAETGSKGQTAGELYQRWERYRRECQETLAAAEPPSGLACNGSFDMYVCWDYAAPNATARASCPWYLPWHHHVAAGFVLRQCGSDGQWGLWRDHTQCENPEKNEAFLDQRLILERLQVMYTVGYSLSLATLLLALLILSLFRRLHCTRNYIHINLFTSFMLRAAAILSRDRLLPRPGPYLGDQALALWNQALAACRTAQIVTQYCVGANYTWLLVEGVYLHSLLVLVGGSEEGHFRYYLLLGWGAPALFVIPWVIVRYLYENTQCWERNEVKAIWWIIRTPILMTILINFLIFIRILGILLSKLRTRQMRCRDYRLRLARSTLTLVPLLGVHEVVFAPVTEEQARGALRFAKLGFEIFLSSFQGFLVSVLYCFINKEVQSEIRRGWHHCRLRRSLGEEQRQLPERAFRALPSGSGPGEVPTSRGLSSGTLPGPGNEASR

[5] = target: T4, GIPR E288G (Homo sapiens, UniProt P48546, E288G); conditions: HEK293A, 1 µM GIP minus vehicle, n = 4, P = 0.7001
T4 sequence (P48546 22-466 E288G): T1 sequence (P48546 22-466 E354Q) with E267G, Q333E

[6] = target: T5, GIPR L304R (Homo sapiens, UniProt P48546, L304R); assay: cAMP accumulation; type: cell-based; set-up: host or cells: HEK293
T5 sequence (P48546 22-466 L304R): T1 sequence (P48546 22-466 E354Q) with L283R, Q333E

glucose-dependent insulinotropic polypeptide [GIP]
logEC50 (cAMP) [1]: -8.4
logEC50 (Arrestin) ([2]; Hill slope 1.0): -8.5
Arrestin (Emax) ([2]; normalized to WT GIPR): 98
logEC50 (Arrestin) ([3]; Hill slope 1.0): -9.2
Arrestin (Emax) ([3]; normalized to WT GIPR): 53
β-arrestin recruitment class ([4]; E461*): preserved β-arrestin recruitment
logEC50 (Arrestin) ([4]; GIPR E461* (ICD), Hill slope 1.0, mean, n = 3, duplicate): -9.2
Arrestin (Emax) ([4]; GIPR E461* (ICD), normalized to WT GIPR, mean, n = 3, duplicate): 60
Mean of ΔBRET [5]: 0.0045
cAMP (Emax) ([6]; HEK293, GIP(1–42) 1 pM–100 nM, 30 min 37 °C, mean of n = 7): 37 % of WT GIPR activity
logEC50 (cAMP) ([6]; HEK293, Hill slope 1.0, mean of n = 7): -10.1
